According to patent publication US10323013B2, “Inhibitors of the IRE-1/XBP-1 pathway and methods of using thereof” (H. LEE MOFFITT CANCER CENTER AND RESEARCH INSTITUTE, INC., priority 2013, dated 2019):

Test system: XBP-1s expression
Test: Inhibition of XBP-1s expression in LPS-stimulated mouse B cells (immunoblots)
Format: cell-based
Settings: LPS 48 h, then inhibitor 20 μM for 24 h (Example 3 prints 20 mM)
Method: The protein concentrations of the supernatants were determined by BCA assay (Pierce).
An inverse correlation between pharmacological inhibition of XBP-1s and expression level of IRE-1 (FIG. 40A) was observed.

Structure (SMILES): C=CCOC(=O)N1CCc2c(c(=O)oc3c(C(=O)OC)c(O)ccc23)C1 [Compound 41, 3-allyl 7-methyl 8-hydroxy-5-oxo-4,5-dihydro-1H-chromeno[3,4-c]pyridine-3, 7(2H)-dicarboxylate]
- inhibition of XBP-1s expression (in words): little to no inhibitory effect
